The text below walks through data of patent US20030032614A1, “Method of treating respiratory distress using synthetic polynucleic acids” (priority 1995, published 2003).

The subject of this assay is chronic obstructive pulmonary disease. The following applies: person, COPD, diabetes; 0.0003 mg sublingual drop four times daily.

With poly(dA):poly(dT), the reported improvement result was “easier breathing, increased ability to carry out normal, everyday activities, and improved quality of life”.
